Test results taken from EP4837906A1, “NOVEL COMPOUND USED AS CBP/PA300 INHIBITOR, AND PHARMACEUTICAL COMPOSITION FOR PREVENTING OR TREATING CANCER, INFLAMMATORY DISORDERS, OR AUTOIMMUNE DISEASES COMPRISING SAME AS ACTIVE INGREDIENT” (dated 2026).

Protein sequences, listed by entry. Tags and fused reporters are not part of them. Residues count along the entry.
UniProt Q92793, 1085-1192 limits assumed: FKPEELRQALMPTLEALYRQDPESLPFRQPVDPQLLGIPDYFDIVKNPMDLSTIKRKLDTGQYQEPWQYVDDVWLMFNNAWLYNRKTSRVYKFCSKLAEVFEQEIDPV

How the values were obtained:
BRD4 (BD1) protein = BRD4 (BD1) protein (Homo sapiens, UniProt O60885); test: BRD4 inhibitory activity, TR-FRET assay of BRD4 bromodomain with Ac-H4 peptide; conditions: read-out: BRD4 (BD1) IC50, BRD4 (BD1) protein 7.5 nM, Ac-H4 peptide 15 nM, 2 hours at room temperature
Method: BRD4 inhibitory activity was measured using a time resolved fluorescence resonance energy transfer (TR-FRET) experiment to verify the activity of BRD4 bromodomain.
(§1) The assay was performed in a final volume of 14 µl, optimized based on a CREBBP time resolved fluorescence resonance energy transfer (TR-FRET) assay kit (BPS Bioscience, cat. 32613) to maximize an assay window, and performed in a final volume of 14 µl, while maximizing the assay window. A TR-FRET fluorescence acceptor and a Tb donor were diluted in an assay buffer containing 2-[4-(2-hydroxyethyl)piperazin-1-yl]ethanesulfonic acid (hereafter, referred to as an assay buffer, BPS Bioscience, cat. 33012), and 3 µl of each solution was transferred to all wells of a white 384-low-volume well plate (Corning, cat. 4513). 2 µl of 4X Ac-H4 peptide (final concentration 15 nM) was transferred to high control wells and test wells. Each compound was prepared at 10 concentration points by serially diluting 3-fold from the highest concentration in a dimethyl sulfoxide solvent. The compound at each concentration was then diluted in the assay buffer to prepare a diluted compound solution that was 4-fold more concentrated than the final concentration. 2 µl of each compound or dimethyl sulfoxide prepared in this way was distributed into an assay plate so that the final test concentration was a minimum of 0.5 µM to a maximum of 10 µM (final dimethyl sulfoxide concentration 1%). 6 µL of 1X assay buffer was added to low control wells and 2 µl was added to high control and test wells. Then, 2 µl of 4X BRD4 (BD1) protein (final concentration 7.5 nM, BPS bioscience, cat 31040) was added to initiate a PPI reaction. The plate was reacted at room temperature for 2 hours before measuring the signal. The TR-FRET signal was measured using an EnVision Multilabel plate reader (PerkinElmer; Mirror LNACE/DELFIA Dual/Bias). For data analysis, the values of each well were obtained using a TR-FRET ratio ((Signal 665 nm/Signal 615 nm) X20000. Data analysis was performed using the TR-FRET ratio ((Signal 665 nm/Signal 615 nm) X20000. Data were reported as percent inhibition compared to control wells based on the following equation: %Activity = ((FRETcompound - FRETLow av)/(FRETHigh av - FRETLow av)) X100. IC50 analysis was determined by standard 4 parameter curve fitting according to an algorithm using GraphPad Prism 7.0 (GraphPad Software Inc., La Jolla, CA, USA). All data are expressed as mean ± standard error of the mean (SEM).

CBP BRD protein = CBP BRD protein (Homo sapiens, UniProt Q92793); test: CBP inhibitory activity, TR-FRET assay of CBP bromodomain with Ac-H4 peptide; conditions: read-out: CBP BRD IC50, CBP BRD protein 7.5 nM, Ac-H4 peptide 85 nM, 2 hours at room temperature
Method: CBP inhibitory activity was measured using a time resolved fluorescence resonance energy transfer (TR-FRET) experiment to verify the activity of CBP bromodomain.
as §1, with “32619)” for “32613)”, “85” for “15”, “CBP BRD” for “BRD4 (BD1)”, “31128)” for “31040)”, “Dual/Bias).” for “Dual/Bias). For data analysis, the values of each well were obtained using a TR-FRET ratio ((Signal 665 nm/Signal 615 nm) X20000. Data analysis was performed using the TR-FRET ratio ((Signal 665 nm/Signal 615 nm) X20000. Data were reported as percent inhibition compared to control wells based on the following equation: %Activity = ((FRETcompound - FRETLow av)/(FRETHigh av - FRETLow av)) X100. IC50 analysis was determined by standard 4 parameter curve fitting according to an algorithm using GraphPad Prism 7.0 (GraphPad Software Inc., La Jolla, CA, USA). All data are expressed as mean ± standard error of the mean (SEM).”
For data analysis, the values of each well were obtained using a TR-FRET ratio ((Signal 665 nm/Signal 615 nm)X20000. Data analysis was performed using the TR-FRET ratio ((Signal 665 nm/Signal 615 nm)X20000. Data were reported as percent inhibition compared to control wells based on the following equation: %Activity = ((FRETcompound - FRETLow av)/(FRETHigh av - FRETLow av))X100. IC50 analysis was determined by standard 4 parameter curve fitting according to an algorithm using GraphPad Prism 7.0 (GraphPad Software Inc., La Jolla, CA, USA). All data are expressed as mean ± standard error of the mean (SEM).

COc1ccc(-c2ccc3c(c2)nc(-c2cncn2C)n3-c2ccc3c(c2)n(C)c(=O)n3C)cc1 was tested, and the IC50 (BRD4 (BD1) protein) was greater than 5 µM and the IC50 (CBP BRD protein) was less than 0.5 µM.

CNC(=O)c1ccc(-c2ccc3c(c2)nc(-c2ccc(F)cc2)n3-c2ccc3c(c2)n(C)c(=O)n3C)cc1F gave an IC50 (BRD4 (BD1) protein) greater than 5 µM and an IC50 (CBP BRD protein) greater than 5 µM.

Compound CNC(=O)c1ccc(-c2ccc3c(c2)nc(C)n3-c2ccc3c(c2)n(C)c(=O)n3C)cc1F has an IC50 (BRD4 (BD1) protein) greater than 5 µM and an IC50 (CBP BRD protein) of 0.5 to 5 µM.

Compound Cn1cncc1-c1nc2cc(-c3cn(CC(=O)N4CCOCC4)nn3)ccc2n1-c1ccc2c(c1)n(C)c(=O)n2C has an IC50 (BRD4 (BD1) protein) greater than 5 µM and an IC50 (CBP BRD protein) of 0.5 to 5 µM.

For Cn1cncc1-c1nc2cc(-c3cn(CC(=O)O)nn3)ccc2n1-c1ccc2c(c1)n(C)c(=O)n2C, the IC50 (BRD4 (BD1) protein) was greater than 5 µM and the IC50 (CBP BRD protein) was 0.5 to 5 µM.

Compound Cn1cncc1-c1nc2cc(-c3ccc(=O)[nH]c3)ccc2n1-c1ccc2c(c1)n(C)c(=O)n2C has an IC50 (BRD4 (BD1) protein) of 0.5 to 5 µM and an IC50 (CBP BRD protein) of less than 0.5 µM.

In the case of CNC(=O)c1ccc(-c2ccc3c(c2)nc(C(C)(C)C)n3-c2ccc3c(c2)n(C)c(=O)n3C)cc1F, the IC50 (BRD4 (BD1) protein) is reported as greater than 5 µM and the IC50 (CBP BRD protein) is reported as less than 0.5 µM.

Work on Cn1cncc1-c1nc2cc(-c3ccc(F)cc3)ccc2n1-c1ccc2c(c1)n(C)c(=O)n2C yielded an IC50 (BRD4 (BD1) protein) greater than 5 µM and an IC50 (CBP BRD protein) of 0.5 to 5 µM.

With COc1cc(OC)cc(-c2ccc3c(c2)nc(-c2cncn2C)n3-c2ccc3c(c2)n(C)c(=O)n3C)c1 the IC50 (BRD4 (BD1) protein) was greater than 5 µM and the IC50 (CBP BRD protein) was less than 0.5 µM.

With COC(=O)c1ccc(-c2ccc3c(c2)nc(-c2cncn2C)n3-c2ccc3c(c2)n(C)c(=O)n3C)cc1 the IC50 (BRD4 (BD1) protein) was greater than 5 µM and the IC50 (CBP BRD protein) was less than 0.5 µM.

For Cn1cncc1-c1nc2cc(-c3ccc(=O)n(C)c3)ccc2n1-c1ccc2c(c1)n(C)c(=O)n2C, the IC50 (BRD4 (BD1) protein) was 0.5 to 5 µM and the IC50 (CBP BRD protein) was 0.5 to 5 µM.

Compound CNC(=O)c1ccc(-c2ccc3c(c2)nc(-c2cnco2)n3-c2ccc3c(c2)n(C)c(=O)n3C)cc1F has an IC50 (BRD4 (BD1) protein) greater than 5 µM and an IC50 (CBP BRD protein) greater than 5 µM.

Compound CNC(=O)c1ccc(-c2ccc3c(c2)nc(C(F)(F)F)n3-c2ccc3c(c2)n(C)c(=O)n3C)cc1F has an IC50 (BRD4 (BD1) protein) greater than 5 µM and an IC50 (CBP BRD protein) of 0.5 to 5 µM.

In the case of CN(C)C(=O)c1ccc(-c2ccc3c(c2)nc(-c2cncn2C)n3-c2ccc3c(c2)n(C)c(=O)n3C)cc1, the IC50 (BRD4 (BD1) protein) is reported as greater than 5 µM and the IC50 (CBP BRD protein) is reported as less than 0.5 µM.

CNC(=O)c1ccc2c(c1)nc(C1CCCC(=O)N1)n2-c1ccc2c(c1)n(C)c(=O)n2C (stereo not drawn) was tested, and the IC50 (CBP BRD protein) was greater than 5 µM.

Work on Cn1cncc1-c1nc2cc(-c3cccc(N)c3)ccc2n1-c1ccc2c(c1)n(C)c(=O)n2C yielded an IC50 (BRD4 (BD1) protein) of 0.5 to 5 µM and an IC50 (CBP BRD protein) of less than 0.5 µM.

Work on Cn1cncc1-c1nc2cc(-c3cnn(CC(C)(C)O)c3)ccc2n1-c1ccc2c(c1)n(C)c(=O)n2C yielded an IC50 (BRD4 (BD1) protein) greater than 5 µM and an IC50 (CBP BRD protein) of 0.5 to 5 µM.

CNS(=O)(=O)c1ccc2c(c1)nc(-c1cncn1-c1ccc(F)c(F)c1)n2-c1ccc2c(c1)n(C)c(=O)n2C was tested, and the IC50 (CBP BRD protein) was greater than 5 µM.

CNS(=O)(=O)c1ccc2c(c1)nc(-c1c[nH]c3cc(Br)ccc13)n2-c1ccc2c(c1)n(C)c(=O)n2C was tested, and the IC50 (CBP BRD protein) was greater than 5 µM.

Work on Cc1ccc2c(-c3nc4cc(C5CCN(C(=O)OC(C)(C)C)CC5)ccc4n3-c3ccc4c(c3)n(C)c(=O)n4C)c[nH]c2c1 yielded an IC50 (CBP BRD protein) greater than 5 µM.

Work on CNS(=O)(=O)c1ccc2c(c1)nc(C1CCCC(=O)N1)n2-c1ccc2c(c1)n(C)c(=O)n2C (stereo not drawn) yielded an IC50 (CBP BRD protein) greater than 5 µM.

CNS(=O)(=O)c1ccc2c(c1)nc(-c1cncn1-c1ccccc1)n2-c1ccc2c(c1)n(C)c(=O)n2C gave an IC50 (CBP BRD protein) greater than 5 µM.

In the case of Cc1ccc2c(-c3nc4cc(Br)ccc4n3-c3ccc4c(c3)n(C)c(=O)n4C)c[nH]c2c1, the IC50 (CBP BRD protein) is reported as greater than 5 µM.
